## scFv variants of Ab-91 (heavy chain) against a SARS-CoV-2 spike peptide

Target peptide (SARS-CoV-2 spike, HR2 region): PDVDLGDISGINAS

Ab-91 is the parent antibody, in scFv form: VL, then three GGGGS repeats, then VH. The light chain is unchanged in all variants.
VL: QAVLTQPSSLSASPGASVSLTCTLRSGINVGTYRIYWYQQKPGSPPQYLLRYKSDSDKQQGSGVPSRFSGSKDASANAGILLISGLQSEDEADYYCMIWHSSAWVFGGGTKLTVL
VH: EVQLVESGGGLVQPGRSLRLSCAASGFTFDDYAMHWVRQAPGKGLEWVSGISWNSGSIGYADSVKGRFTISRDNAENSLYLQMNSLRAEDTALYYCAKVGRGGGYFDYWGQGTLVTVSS

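The parent was found by panning a naive human phage display library on the peptide. In library AAYL51, one, two or three CDR residues were substituted; doubles and triples were drawn at random. In AlphaSeq, yeast of one mating type display the scFv and yeast of the other type display the target. Pairs that bind mate more often; barcode pairs of the diploids are counted by sequencing. Scores were corrected for input abundance and mapped to Kd with protein pairs of known affinity run in the same pool. Each pool was mated in three replicate cultures.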

Substitutions are numbered in sequence along the VH above, starting at 1 (not Kabat).
The read-out is the apparent dissociation constant on a log10 scale (nM): the lower, the stronger.
Replicates are averaged; those with no signal do not enter the mean.
A pair that was not seen in that replicate is written "ND"; this usually means weak binding, but a binder can also be missed.
For reference, the parent read 1.86 as the reference entry and 0.88 as a member of this library.

| # | changes | log10 Kd (nM) by replicate | log10 Kd (nM), mean | control signals |
|---|---|---|---|---|
| 1 | M34W I58R S63M | 5.89 ND ND | 5.89 | 3/9 (4.97) |
| 2 | G56C Y108S | 1.37 1.31 0.90 | 1.19 | 8/9 (5.45) |
| 3 | G56P Y108P | ND 4.08 ND | 4.08 | 2/9 (3.94) |
| 4 | T28G N54M D107S | ND ND 3.99 | 3.99 | 0/9 |
| 5 | W53N G59K G104T | ND 2.80 ND | 2.80 | 0/9 |
| 6 | G59C V64M G104M | ND 5.00 ND | 5.00 | 0/9 |
| 7 | S63E F106T Y108N | ND 5.25 ND | 5.25 | 0/9 |
| 8 | I58N A61G D62S | 3.81 4.78 4.69 | 4.43 | 8/9 (4.87) |
| 9 | G50Y Y60P A61Y | 4.80 5.64 ND | 5.22 | 3/9 (5.34) |
| 10 | D30W G50F V64N | ND 3.41 4.18 | 3.79 | 0/9 |
| 11 | Y32Q I58Q D107F | 4.76 4.89 4.54 | 4.73 | 2/9 (5.54) |
| 12 | A33V H35M S57A | 4.87 5.45 ND | 5.16 | 2/9 (4.85) |
| 13 | F27L S57E D107G | ND 4.98 ND | 4.98 | 2/9 (4.41) |
| 14 | G59V R101D Y105S | ND ND ND | ND | 4/9 (4.24) |
| 15 | G26K Y60N G103T | ND ND 3.82 | 3.82 | 2/9 (4.19) |
| 16 | W53G G56M | ND 3.66 ND | 3.66 | 2/9 (3.50) |
| 17 | S63W K65V | 2.52 3.01 2.32 | 2.62 | 2/9 (4.37) |
| 18 | T28V F29S A33H | 5.95 4.46 ND | 5.21 | 8/9 (4.46) |
| 19 | F27C V99Y Y105L | ND ND ND | ND | 0/9 |
| 20 | D31W I51S G56W | ND ND ND | ND | 3/9 (5.01) |
| 21 | T28I A61E V64G | ND ND ND | ND | 0/9 |
| 22 | H35R S57N Y108F | 4.62 ND 3.86 | 4.24 | 1/9 (5.01) |
| 23 | S52E Y60I V64S | 4.54 5.21 4.23 | 4.66 | 4/9 (4.71) |
| 24 | H35L S55K Y108Q | ND ND ND | ND | 1/9 (4.59) |
| 25 | F29D I51E V64R | ND ND ND | ND | 0/9 |
| 26 | T28K G102W D107S | 4.35 ND ND | 4.35 | 2/9 (4.49) |
| 27 | A33F I51K R101Q | ND ND ND | ND | 0/9 |
| 28 | F27I S52N Y108T | ND ND ND | ND | 0/9 |
| 29 | F29L D31S D62S | 2.86 2.41 3.29 | 2.85 | 2/9 (3.93) |
| 30 | G100W R101V G103R | 1.66 1.65 1.31 | 1.54 | 5/9 (5.05) |
| 31 | Y60V V99F G102V | 1.23 1.29 0.88 | 1.13 | 9/9 (5.22) |
| 32 | F29Y S63V F106C | ND ND ND | ND | 1/9 (4.39) |
| 33 | T28H F29S D31I | 3.50 ND ND | 3.50 | 3/9 (4.50) |
| 34 | N54K S57A G104M | ND 6.08 ND | 6.08 | 3/9 (5.02) |
| 35 | G26V H35T G100P | ND ND ND | ND | 0/9 |
| 36 | F29P K65I D107M | 4.31 ND ND | 4.31 | 2/9 (4.63) |
| 37 | M34L W53E | 4.34 ND ND | 4.34 | 2/9 (4.42) |
| 38 | D31K Y60Q G104A | ND ND ND | ND | 1/9 (3.59) |
| 39 | I51T S57Y S63L | ND ND ND | ND | 2/9 (3.94) |
| 40 | F27Q V64Q G104Q | ND ND ND | ND | 0/9 |
| 41 | M34K V64M R101Q | ND ND ND | ND | 0/9 |
| 42 | G50I D62T G100K | ND ND ND | ND | 0/9 |
| 43 | I58E G102V | 3.32 ND ND | 3.32 | 0/9 |
| 44 | S57K K65D G102Q | ND ND ND | ND | 0/9 |
| 45 | S57A Y108W | 3.05 3.07 3.17 | 3.10 | 2/9 (5.28) |
| 46 | H35C G56H S57L | ND ND ND | ND | 0/9 |
| 47 | I51C V64G D107C | ND ND ND | ND | 1/9 (3.72) |

Picked from the list: the 5 lowest averages where every replicate gave a value.

| changes | log10 Kd (nM) by replicate | log10 Kd (nM), mean | control signals |
|---|---|---|---|
| Y60V V99F G102V | 1.23 1.29 0.88 | 1.13 | 9/9 (5.22) |
| G56C Y108S | 1.37 1.31 0.90 | 1.19 | 8/9 (5.45) |
| G100W R101V G103R | 1.66 1.65 1.31 | 1.54 | 5/9 (5.05) |
| S63W K65V | 2.52 3.01 2.32 | 2.62 | 2/9 (4.37) |
| F29L D31S D62S | 2.86 2.41 3.29 | 2.85 | 2/9 (3.93) |

Empty control strains, which show no peptide, gave a signal in 21% of pairings with library AAYL51; the median was 4.54 and 95% of these signals were weaker than 3.26. No background was subtracted. The control count says in how many pairings with the empty strains this scFv gave a signal, with their mean in brackets.

Source: Engelhart et al. 2022 (doi:10.1038/s41597-022-01779-4), MIT Lincoln Laboratory and A-Alpha Bio; data file from the FLAb repository.